PubChem BioAssay AID1631 (National Center for Advancing Translational Sciences (NCATS), 2009)
The campaign covered roughly 260,000 compounds. About 890 (0.34%) were called active. All entries are inconclusive by the source's own rule. Clear calls are listed elsewhere. Calls come from the whole dose curve; as a rule, active = well fitted activation curve with a large enough effect; inconclusive = small, poorly fitted or top-dose-only effect; inactive = no such curve, though single readings can be large or run the other way.

By UniProt entry, the sequences of proteins in these tests, tags left out.
UniProt P14618, whole entry, looked up: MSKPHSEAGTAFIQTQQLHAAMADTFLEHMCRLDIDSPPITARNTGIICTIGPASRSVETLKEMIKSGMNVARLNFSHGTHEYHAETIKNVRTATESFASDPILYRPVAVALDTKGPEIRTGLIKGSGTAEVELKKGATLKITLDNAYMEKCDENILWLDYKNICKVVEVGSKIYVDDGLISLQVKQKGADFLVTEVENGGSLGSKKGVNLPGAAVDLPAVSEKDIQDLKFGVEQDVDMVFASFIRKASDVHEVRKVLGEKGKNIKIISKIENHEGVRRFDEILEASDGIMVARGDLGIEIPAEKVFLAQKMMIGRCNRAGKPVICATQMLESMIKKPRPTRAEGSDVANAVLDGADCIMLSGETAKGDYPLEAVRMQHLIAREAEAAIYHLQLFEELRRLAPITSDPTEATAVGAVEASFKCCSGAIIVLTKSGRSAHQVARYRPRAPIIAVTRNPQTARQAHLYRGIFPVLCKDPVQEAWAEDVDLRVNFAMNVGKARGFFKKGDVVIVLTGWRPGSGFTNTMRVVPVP

These compounds were tested against Pyruvate kinase PKM (Homo sapiens) (UniProt P14618) (assay: qHTS Assay for Activators of Human Muscle isoform 2 Pyruvate Kinase). Settings: purified PKM2, Kinase-Glo ATP luminescence, activation.
Text: NIH Chemical Genomics Center [NCGC] Matthew G. Vander Heiden, M.D., Ph.D. [Harvard Medical School, 77 Avenue Louis Pasteur, Boston, MA 02115] MLPCN Grant: 1 R03 MH085679-01 NCGC Assay Overview: Human pyruvate kinase muscle 2 (hPK-M2) enzyme was supplied as a highly purified (>95% pure) preparation from Harvard Medical School and assayed for its ability to generate ATP from ADP using phosphoenolpyruvate (PEP) as a substrate. ATP generation was detected in a coupled reaction by luciferase-mediated luminescence, an ATP-dependent process. […] The enzyme was assayed at an intermediate level of activity to screen for both inhibitors and activators.
NCGC Assay Protocol Summary: Three uL of substrate mix (at r.t.) in assay buffer (50 mM Imidazole pH7.2, 50 mM KCl, 7 mM MgCl2, 0.01% Tween 20, 0.05% BSA) was dispensed into white solid bottom 1,536 well microtiter plates so that the final concentrations of substrates in the assay were 0.1 mM ADP and 0.5 mM PEP. 23 nL of compound were delivered by a pin tool and 1 uL of enzyme mix in assay buffer (4 degree Celsius) was added. Plates were incubated at room temperature for 1 hour. Two uL of detection mix (Kinase-Glo, Promega; at 4 degree Celsius protected from light) was added and luminescence read by a ViewLux (Perkin Elmer) at 5 second exposure/plate. Data were normalized to the uninhibited and AC100 inhibition (no enzyme). […]
Note: nearly all actives have a fitted effect of over 55% in size.
Potency is the fitted concentration of half-maximal effect.

Structure (SMILES) | Potency
CC(=O)Nc1ccc([As](=O)(O)O)c(O)c1 | inconclusive: 39.8 µM
CCc1nc2c(n1)c1c(non1O)c1c2no[n+]1[O-] | inconclusive: 35.5 µM
